Measured values reported in PubChem BioAssay AID588519 (ICCB-Longwood Screening Facility, Harvard Medical School, 2011).
Only a part is listed here, and it is no random draw. Active and inactive are the calls of the source. Rule as the data show it: active = % elongation below about 90%; inactive = the rest, inconclusive results apart.

biological target: Genome polyprotein (Poliovirus type 1 (strain Mahoney)) (UniProt P03300); test: poliovirus RdRp elongation inhibitors, primary screen, biochemical, fluorescence polarization, total intensity (AID 588519); details: poliovirus polymerase elongation, stronger effect = lower value, compound at 16.7 µg/mL

| SMILES | % elongation |
| --- | --- |
| CN(CCCl)CCCl | inactive: 102% |
